# Experiment: In vitro human mitochondrial fraction intrinsic clearance of SPL026 and SPL028 analogues
# Details: liver mitochondrial fraction
smiles,measurement,setting,value
"[2H]C([2H])([2H])N(C([2H])([2H])[2H])C([2H])([2H])Cc1c[nH]c2ccccc12 [SPL028viii, α,α-dideutero-N,N-bis(trideutero)dimethyltryptamine]",half-life,"Half-Life R1, human liver mitochondrial fraction, replicate R1",2.02 h
same,half-life,"Half-life, 0.5 mg/mL human liver mitochondrial fraction, first experiment r7-r12, repeat r13-r20",2.13 h

# From patent US11471417B2 (Small Pharma Ltd, priority 2020, dated 2022)
